Target: MDM2 (Homo sapiens, UniProt Q00987)
Assay: TR-FRET
Assay type: binding
Details: mean ± SD (n = 3)

The chains behind the UniProt entries cited, without tags or fusion partners.
UniProt Q00987, whole entry: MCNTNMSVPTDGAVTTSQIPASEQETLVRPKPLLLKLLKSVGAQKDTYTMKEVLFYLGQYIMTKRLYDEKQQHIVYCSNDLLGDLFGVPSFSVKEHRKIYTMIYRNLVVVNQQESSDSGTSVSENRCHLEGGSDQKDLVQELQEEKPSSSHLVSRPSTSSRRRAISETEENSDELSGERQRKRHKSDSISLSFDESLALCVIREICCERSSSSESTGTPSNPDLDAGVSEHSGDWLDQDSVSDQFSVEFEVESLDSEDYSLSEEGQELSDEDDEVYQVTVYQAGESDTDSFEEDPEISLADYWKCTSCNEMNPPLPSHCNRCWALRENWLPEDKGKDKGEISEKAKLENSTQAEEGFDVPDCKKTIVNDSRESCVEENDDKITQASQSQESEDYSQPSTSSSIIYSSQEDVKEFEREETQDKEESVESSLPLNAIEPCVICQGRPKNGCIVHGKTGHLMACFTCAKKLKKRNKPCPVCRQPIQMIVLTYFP

COc1ccc(C2=N[C@@H](c3ccc(Cl)cc3)[C@@H](c3ccc(Cl)cc3)N2C(=O)N2CCNC(=O)C2)c(OC(C)C)c1 [Nutlin-3a, nutlin-3a, reference compound]
Inhibition rate at 1.0 μmol/L, MDM2: 86.9 ± 9.3%
